Experimental data: ChEMBL document CHEMBL4145457, “Design, synthesis and biological evaluation of novel pyridine-thiazolidinone derivatives as anticancer agents: Targeting human carbonic anhydrase IX” (Eur J Med Chem, 2018)

Species on record: Homo sapiens
Test: Selectivity ratio of IC50 for human carbonic anhydrase 2 to IC50 for carbonic anhydrase 9

| Ratio IC50 | SMILES |
| --- | --- |
| 9 | O=C1/C(=C\c2ccc([N+](=O)[O-])cc2)S/C(=N/c2ccccc2)N1Cc1ccncc1 |
| 14 | O=C1/C(=C\c2ccc(O)c(O)c2)S/C(=N/c2ccccc2)N1Cc1ccncc1 |
